From patent US20100098690A1, “PHARMACEUTICAL COMPOSITION” (KYOWA HAKKO KIRIN CO., LTD., priority 2007, published 2010) come the findings set out here.

The subject of test [1] is human breast cancer cell line (BT-474). Put plainly: In vitro cell growth inhibition assay (WST-1) with isobologram analysis of combination effect. The test is classed as cell-based. Particulars: combined with the test compound (hydrochloride of Compound 22), 72 hours, isobologram method. How it is done:
Measurement of the cell growth inhibition rate of the test compound and a combined compound on a human multiple myeloma cell line (NCI-H929), a human non-small-cell lung cancer cell line (PC-9), a human breast cancer cell line (BT-474), a human renal cancer cell line (VMRC-RCZ), a human chronic myeloid leukemia cell line (K-562) and a human acute myeloid leukemia cell line (MOLM-13) was carried out in the following manner. […]
The solutions of the test compound and the combined compound diluted with culture medium were added to the plates in an amount of 10 μL/well, respectively, followed by further incubation in a 5% CO2 incubator at 37° C. for 72 hours. […] The absorbance at 450 nm (control wavelength: 655 nm) was measured using a microplate spectrophotometer SPECTRA max 340PC (Molecular Devices). Separately, the solvent used for preparation of each compound solution alone was added to the wells, and the absorbance was measured in the same manner as above after 72-hour incubation carried out in the same manner as above and also immediately after the addition of the solvent. The cell growth inhibition rate on the cells in the compound-added groups (groups treated with the test compound alone, the combined compound alone, or both compounds) was calculated according to the following equation. […]

The test system of test [2] is human breast cancer KPL-4 cells. Put plainly: Antitumor effect in a mouse model transplanted with human breast cancer KPL-4 cells. The note with it: day 10; test compound 100 mg/kg i.v. twice a day x 5 days; paclitaxel 25 mg/kg i.v. days 0 and 3; trastuzumab 50 mg/kg i.v. days 0, 3, 7, 10, 14 and 17. The test is classed as in vivo, BALB/cAJcl-nu mice.

As for trastuzumab, in test [1], the “Combination effect of test compound and each compound” value is recorded as “Envelope of additivity”. In test [2], the “T/C (V/V0 of each group divided by V/V0 of the negative control group)” value was found to be 0.96.
